Values quoted from earlier work in US20260232847A1, “Nanoparticles For Imaging And Treatment Of Arthritis And Inflammatory Joint Diseases” (Cornell University, priority 2023, published 2026).

Details: in vivo

B1: anakinra conjugated to block co-polymer nanoparticles: anakinra conjugated to block co-polymer nanoparticles (dh~270 nm), literature system (conjugate, chains of the INN, looked up)
chain: MRPSGRKSSKMQAFRIWDVNQKTFYLRNNQLVAGYLQGPNVNLEEKIDVVPIEPHALFLGIHGGKMCLSCVKSGDETRLQLEAVNITDLSENRKQDKRFAFIRSDSGPTTSFESAACPGWFLCTAMEADQPVSLTNMPDEGVMVTKFYFQEDE
modifications: block co-polymer nanoparticles
joint half-life: 72 h
